Measured values as given in patent US20180355034A1.
pKd: −log10 of the molar value. Several values for one entry are separate records, joined by “and”; a condition that tells them apart may be missing. Equal values may be shown once.

The chains behind the UniProt entries cited, without tags or fusion partners. Residues count along the entry.
UniProt P55899, 24-290, chain 1 of 2: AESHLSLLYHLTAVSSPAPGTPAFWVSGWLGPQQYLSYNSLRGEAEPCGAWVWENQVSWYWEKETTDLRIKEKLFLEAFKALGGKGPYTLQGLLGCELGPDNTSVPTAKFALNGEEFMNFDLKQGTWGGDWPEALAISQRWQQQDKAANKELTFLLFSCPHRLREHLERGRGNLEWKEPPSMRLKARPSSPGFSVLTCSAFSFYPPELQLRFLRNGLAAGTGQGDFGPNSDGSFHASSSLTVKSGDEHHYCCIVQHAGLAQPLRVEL

Target: Recombinant human FcRn (FcRn alpha and beta2-microglobulin) (human) (UniProt P55899)
Assay: SPR

wild-type recombinant Fc fragment (human IgG1 Fc, aa 221-447) (from UniProt P01857 104-330)
pKd: 6.87 and 6.37
